The values that follow come from patent US20230346272A1 (priority 2021, published 2023).

The data set is described as follows: DPV with microneedle sensor array, buprenorphine and norbuprenorphine (FIGS. 11A-11C). Particulars: applied voltages from -0.2 to 1.0V.

`CO[C@]12CC[C@@]3(C[C@@H]1[C@](C)(O)C(C)(C)C)[C@H]1Cc4ccc(O)c5c4[C@@]3(CCN1)[C@H]2O5`: the “voltage of current peak (DPV), both substances together” value (1 μg/ml buprenorphine and 1 μg/ml norbuprenorphine together) turned out to be 0.29 V. Also, the “voltage of measured current peak (DPV), substance alone” value (1 μg/ml, single substance, against unmedicated baseline) was “about 0.27 V”.
